Source: patent US12723063B2, “GIPR-agonist compounds” (Eli Lilly and Company, priority 2019, dated 2026)

Chains of the proteins cited; added tags and fusions are not shown. Residues count along the entry.
UniProt P43220, 24-463: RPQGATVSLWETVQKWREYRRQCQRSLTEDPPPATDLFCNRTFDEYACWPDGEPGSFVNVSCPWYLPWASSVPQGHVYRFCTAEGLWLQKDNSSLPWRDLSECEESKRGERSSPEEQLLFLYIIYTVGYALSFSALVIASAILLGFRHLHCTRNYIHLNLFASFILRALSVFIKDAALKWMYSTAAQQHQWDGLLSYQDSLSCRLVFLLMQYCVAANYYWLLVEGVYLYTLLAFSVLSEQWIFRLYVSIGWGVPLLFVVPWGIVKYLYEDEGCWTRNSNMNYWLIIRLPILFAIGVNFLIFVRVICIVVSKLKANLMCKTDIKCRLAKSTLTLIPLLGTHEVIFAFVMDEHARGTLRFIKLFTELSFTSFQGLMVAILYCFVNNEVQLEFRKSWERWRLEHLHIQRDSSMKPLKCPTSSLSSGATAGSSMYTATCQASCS
UniProt P47871, 26-477: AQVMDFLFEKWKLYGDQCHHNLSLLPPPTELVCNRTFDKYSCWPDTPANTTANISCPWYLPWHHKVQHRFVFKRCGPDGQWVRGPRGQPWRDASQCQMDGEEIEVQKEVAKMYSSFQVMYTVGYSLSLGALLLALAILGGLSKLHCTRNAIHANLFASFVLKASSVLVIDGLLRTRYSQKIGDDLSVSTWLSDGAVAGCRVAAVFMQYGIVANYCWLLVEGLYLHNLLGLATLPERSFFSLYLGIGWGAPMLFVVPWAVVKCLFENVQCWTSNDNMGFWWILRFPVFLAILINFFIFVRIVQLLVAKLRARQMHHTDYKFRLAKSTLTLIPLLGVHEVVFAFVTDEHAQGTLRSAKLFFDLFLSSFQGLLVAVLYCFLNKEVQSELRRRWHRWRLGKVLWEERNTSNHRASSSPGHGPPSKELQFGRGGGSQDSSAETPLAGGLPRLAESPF

Key:
human GLP-1R = molecular target: T1, human GLP-1R (Homo sapiens, UniProt P43220); assay: [125I]-GLP-1 binding, SPA with WGA beads, 0.1% bacitracin; settings: read-out: hGLP1R Ki, geometric mean
T1 construct: expressed in transfected cells; crude membranes
Description: (§1) Stably transfected cell lines are prepared by subcloning receptor cDNA into a pcDNA3 expression plasmid and transfected into human embryonic kidney (HEK) 293 (hGcgR and hGLP-1R) or Chinese Hamster Ovary (CHO) (hGIPR) cells followed by selection with Geneticin (hGLP-1R and hGIPR) or hygromycin B (hGcgR).
(§2) Two methods are used for the preparation of crude cell membranes.
(§3) Method 1: Frozen cell pellets are lysed on ice in hypotonic buffer containing 50 mM Tris HCl, pH 7.5, and Roche Complete™ Protease Inhibitors with EDTA. The cell suspension is disrupted using a glass Potter-Elvehjem homogenizer fitted with a Teflon® pestle for 25 strokes. […]
The equilibrium binding dissociation constants (Kd) for the various receptor/radioligand interactions are determined from homologous competition binding analysis instead of saturation binding due to high propanol content in the [^125I] stock material. […]
Data are analyzed using four-parameter (curve maximum, curve minimum, IC50, Hill slope) nonlinear regression routines (Genedata Screener, version 12.0.4, Genedata AG, Basal, Switzerland). […] Values for Ki are reported as the geometric mean, with error expressed as the standard error of the mean (SEM) and n is equal to the number of independent replicates (determined in assays performed on different days). […] SEM is only calculated when y=2 or greater. […]

human GcgR = molecular target: T2, human GcgR (Homo sapiens, UniProt P47871); assay: [125I]-Glucagon binding, SPA with WGA beads, 0.1% bacitracin; settings: read-out: hGcgR Ki, geometric mean
T2 construct: expressed in transfected cells; crude membranes
Description: as §1, §2
as §3, with “strokes. The homogenate is centrifuged at 4° C. at 1100× g for 10 minutes.” for “strokes.”
(§4) The equilibrium binding dissociation constants (Kd) for the various receptor/radioligand interactions are determined from homologous competition binding analysis instead of saturation binding due to high propanol content in the [^125I] stock material.
The human Geg receptor binding assays are performed using a Scintillation Proximity Assay (SPA) format with wheat germ agglutinin (WGA) beads (Perkin Elmer). […] Plates are sealed and mixed on a plate shaker (setting 6) for 1 minute and read with a PerkinElmer Trilux MicroBeta® scintillation counter after 12 hours of incubation/settling time at room temperature. […]

human GIPR = molecular target: T3, human GIPR (Homo sapiens, UniProt P48546); assay: [125I]-GIP binding, SPA with WGA beads, 0.1% bacitracin; settings: read-out: hGIPR Ki, geometric mean
T3 construct: expressed in transfected cells; crude membranes
T3 sequence (P48546 22-466): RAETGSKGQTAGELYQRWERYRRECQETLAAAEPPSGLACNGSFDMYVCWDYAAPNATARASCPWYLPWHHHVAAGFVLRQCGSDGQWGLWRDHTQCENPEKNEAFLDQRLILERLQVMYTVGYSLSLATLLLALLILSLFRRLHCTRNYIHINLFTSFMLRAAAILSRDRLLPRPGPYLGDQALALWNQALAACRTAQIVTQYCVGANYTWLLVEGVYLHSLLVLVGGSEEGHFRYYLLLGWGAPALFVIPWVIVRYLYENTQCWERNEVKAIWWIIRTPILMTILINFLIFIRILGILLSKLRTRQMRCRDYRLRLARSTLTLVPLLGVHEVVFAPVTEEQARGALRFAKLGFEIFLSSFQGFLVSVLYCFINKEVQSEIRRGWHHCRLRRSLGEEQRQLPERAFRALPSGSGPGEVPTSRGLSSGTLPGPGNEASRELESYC
Description: as §1, §2
as §3, with “strokes. The homogenate is centrifuged at 4° C. at 1100× g for 10 minutes.” for “strokes.”
as §4
The binding buffer contains 25 mM HEPES, pH 7.4, 2.5 mM CaCl2), 1 mM MgCl2, 0.1% (w/v) bacitracin, 0.003% (w/v) TWEEN®-20, and Roche Complete™ Protease Inhibitors without EDTA. […] Plates are sealed and mixed on a plate shaker (setting 6) for 1 minute and read with a PerkinElmer Trilux MicroBeta® scintillation counter after 2.5 to 12 hours of incubation/settling time at room temperature. […]

Row | Ki (human GIPR) [nM] | Substance | Ki (human GLP-1R) [nM] | Ki (human GcgR) [nM]
1 | – | GIP(1-42)-NH2 [hGIP-NH2, reference compound] | 1100 | 1150
2 | > 2420 | Glucagon [hGlucagon, reference compound] | > 4940 | –
